In this assay the test system is HCV replicon RNA-containing Huh7 cells (clone A cells). Briefly: HCV replicon assay. It is filed as cell-based. On the procedure: HCV replicon assay. HCV replicon RNA-containing Huh7 cells (clone A cells; Apath, LLC, St. Louis, Mo.) were kept at exponential growth in Dulbecco's modified Eagle's medium (high glucose) containing 10% fetal bovine serum, 4 mM L-glutamine and 1 mM sodium pyruvate, 1× nonessential amino acids, and G418 (1,000 μg/ml). Antiviral assays were performed in the same medium without G418. Cells were seeded in a 96-well plate at 1,500 cells per well, and test compounds were added immediately after seeding. Incubation time 4 days. At the end of the incubation step, total cellular RNA was isolated (RNeasy 96 kit; Qiagen). Replicon RNA and an internal control (TaqMan rRNA control reagents; Applied Biosystems) were amplified in a single-step multiplex RT-PCR protocol as recommended by the manufacturer. The HCV primers and probe were designed with Primer Express software (Applied Biosystems) and covered highly conserved 5′-untranslated region (UTR) sequences (sense, 5′-AGCCATGGCGTTAGTA(T)GAGTGT-3′ (SEQ ID NO: 1), and antisense, 5′-TTCCGCAGACCACTATGG-3′ (SEQ ID NO: 2); probe, 5′-FAM-[…] -TAMRA-3′) (SEQ ID NO: 3).
To express the antiviral effectiveness of a compound, the threshold RT-PCR cycle of the test compound was subtracted from the average threshold RT-PCR cycle of the no-drug control (ΔCtHCV). […]
Background: Replicon systems follow genome replication, usually without infectious particles.

`CS(=O)(=O)Nc1ccc2c(c1)S(=O)(=O)N=C(C1=C(O)[C@@H]3[C@H]4CC[C@H](C4)[C@@H]3N(Cc3ccc(F)cc3)C1=O)N2` [ANA-598]: the “Replicon assay result in combination with compound 1: synergism” value is reported as “synergism”.

These data come from US8563530B2, “Purine nucleoside phosphoramidate” (Gilead Pharmassel LLC, priority 2010, dated 2013).
